# Laboratory results published in paper PMC7093532, “Iron bioavailability from bouillon fortified with a novel ferric phytate compound: a stable iron isotope study in healthy women (part II)” (Scientific Reports, 2020).
# Assay: Stable iron isotope absorption study in healthy adult women (erythrocyte incorporation of oral isotopic labels)
# Conditions: n = 22 women, 4.2 mg labeled iron
# Description: The human study was a controlled, single blind (to the subjects), single center trial. Healthy adult women (n = 23) consumed 6 different types of investigational products in random order with a cross-over design: bouillon with and without corn porridge fortified either with [^58Fe]-PA-HCP, [^54Fe]-SO4, or [^57Fe]-PP, resulting in 6 different test meal sequences. The sequences built up a Partial Williams Latin square, balanced for first order carry over. The experimental phase lasted for a period of 33 days.
# The human study was conducted between December 2016 and February 2017 at the Laboratory of Human Nutrition of the ETH Zurich. […] The study procedure was explained in detail and written informed consent was obtained. An interview was conducted, weight and height were measured and a venous blood sample was drawn to assess whether participants fulfilled inclusion and exclusion criteria (Hb, Ht, number of erythrocytes, PF). […] Quantitative consumption of the investigational product was ensured by washing the glass test meal container 2 times with 10 mL of ultrapure water. […]
# Venous blood samples were collected after an overnight fast on day 1 (baseline), day 17 and day 33 (endpoint) to determine iron status and iron absorption from the test meals. Iron absorption was determined by quantifying the incorporation of oral stable isotopic labels into erythrocytes. […]
structure (smiles),measurement,setting,value
"O=P([O-])([O-])OP(=O)([O-])[O-].O=P([O-])([O-])OP(=O)([O-])[O-].O=P([O-])([O-])OP(=O)([O-])[O-].[Fe+3].[Fe+3].[Fe+3].[Fe+3] [FePP, Ferric pyrophosphate]","Fractional iron absorption (FIA), geo-mean",bouillon + inhibitory meal rich in phytate,0.3%
same,"Fractional iron absorption (FIA), geo-mean",fortified reconstituted bouillon,1.7%
